# System: Type I Collagen gene Col1a1 expression
# Assay: Precision cut lung slices, acute bleomycin exposure, Col1a1 expression
# Format: cell-based, mice (C57BL/6)
# Protocol: Mice (C57BL/6) were administered 3 U/kg of bleomycin (Teva Pharmaceuticals; North Wales, PA) on day 0 via oropharyngeal aspiration while under anesthesia. On day 14, precision cut lung slices were obtained. Following euthanization, 2% low gelling temp agarose was injected into the mouse lungs via the trachea. […] The lobes were then subjected to precision slicing to obtain samples for culture using a microtome (Compresstome VF-300-OZ, Precisionary; Greenville, NC). Individual slices were distributed in a multiwell culture plate and cultured for 3 days under control (DMSO) and test compound conditions.
smiles,measurement,value
"Cc1cc(C)n(-c2cccc([C@H](CC(=O)O)CN3CC[C@H](CCc4ccc5c(n4)NCCC5)C3)c2)n1 [first pan-αV small molecule inhibitor, (3S)-3-[3-(3,5-dimethyl-1H-pyrazol-1-yl)phenyl]-4-{(3S)-3-[2-(5,6,7,8-tetrahydro-1,8-naphthyridin-2-yl)ethyl]-1-pyrrolidinyl}butanoic acid]","Type I Collagen gene Col1a1 expression, normalized to DMSO control slices",decreased Type I Collagen gene Col1a1 expression comparably
